{"source": "patent US5383848A", "about": "“Iontophoretic administration of drugs” (Gensia, Inc., priority 1991, dated 1995)", "system": "elevated heart rate", "assay": "Additional in vivo dog experiments: dermal clearance enhancer pretreatment then arbutamine TDI (Example C)", "design": "species or system labrador dogs", "details": "heart rate decline, Table VII, single dog run; listed as Control, hydrochloride", "experimental": "Additional experiments were performed to study the effect of certain compositions on the offset time and dermal clearance in dogs.\nIn these experiments, the formulation to be tested was applied either topically or by transdermal iontophoresis (TDI) as described below.\nSix labrador dogs (20 to 30 kg) were trained to lie quietly on a table. Before each experiment, three ECG electrodes (one lead) were applied on shaved areas of the back (near the front legs) to obtain the heart rate. The outer hind leg area (either right or left) was shaved prior to each experiment, with care taken not to cut or visibly damage the skin. […]\nEach vasodilator that was delivered by TDI used a 1.8 cm^2 electrode (Graphic Controls, Buffalo, N.Y.) containing the vasodilator in a gel at the concentrations listed in experimental methods section. […] During this time the heart rate was continuously recorded (at 5 second intervals) with the ESA Research System. […]\nEach topically applied vasodilator was applied to the skin in a volume of approximately 0.25 ml. The agent was allowed to absorb into the skin, during which time the heart rate was continuously recorded for 10 minutes using the ESA Research System.\nTo test if heat alone would produce sufficient vasodilation, a 60° C. hot pack was applied to the skin 10 minutes prior to drug delivery, during which time the heat rate was continuously recorded by the ESA System. […]", "note": "Where “and” joins values, the source holds several entries; their conditions need not be identical. Equal values may be shown once."}
{"molecule": "Cl.Oc1ccc(CCCCNCC(O)c2ccc(O)c(O)c2)cc1", "note": "(stereo not shown) [Arbutamine, 1-(3,4-dihydroxy-phenyl)-2-(4-(4-hydroxyphenyl)butylamino)ethanol hydrochloride]", "values": [{"measurement": "HALF-LIFE", "result": "19.89 min and 19.23 min"}]}
